Source: BindingDB's records for 11828463 (University of NeuchÂTel, 2001)

Sequences of proteins named here, by UniProt entry; tags and fusion partners are left off. Residues count along the entry.
UniProt P0ACB2, 2-324 limits assumed: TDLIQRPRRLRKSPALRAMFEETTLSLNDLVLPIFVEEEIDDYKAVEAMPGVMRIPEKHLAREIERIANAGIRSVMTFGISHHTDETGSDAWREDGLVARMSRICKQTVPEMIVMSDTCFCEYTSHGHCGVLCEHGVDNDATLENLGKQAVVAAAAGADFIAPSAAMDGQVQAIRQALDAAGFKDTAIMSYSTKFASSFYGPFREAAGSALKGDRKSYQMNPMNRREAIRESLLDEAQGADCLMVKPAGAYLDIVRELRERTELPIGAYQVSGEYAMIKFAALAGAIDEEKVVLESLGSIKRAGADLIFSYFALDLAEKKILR

Biological target: Delta-aminolevulinic acid dehydratase (Escherichia coli (strain K12), UniProt P0ACB2)
Experiment: PBGS Assay
Conditions: pH 8.1
Excerpt: The PBGS assay is a colorimetric assay based on the reaction between PBG and 4-dimethylaminobenzaldehyde (Ehrlich's reagent).

In the case of `O=C(CC[N+](=O)[O-])CNC(=O)CC[N+](=O)[O-]`, the Ki is reported as 30 µM.
